Values of other authors, collected in patent US7399743B2, “Targeted thrombosis” (The Scripps Research Institute, priority 2001, dated 2008).

Biological target: NAALADase
Details: read-out: Ki, inhibition of NAALADase activity; cited from earlier work

In the case of Asp-β-linked-L-Glutamate (DE) [D-β-E], the Ki is listed as 0.7 µM.
